Legend:
5637 cells = test: Cell adhesion assay on coated microtiter plates; format: cell-based, human; details: crystal violet stain
Method: (§1) Cell adhesion assays: 96-well PVC microtiter plates were coated with Iso4-HSA or GNRs@Chit-Iso4 in 50 mM sodium phosphate, pH 7.3, containing 150 mM sodium chloride, (overnight incubation at 4 C). The plates were washed and blocked with 2% BSA in DMEM or RPMI-1640 (200 μl/well, 1 h). MB49-Luc and 5637 cells were detached with DPBS-E, washed twice with DPBS, and suspended in DMEM or RPMI-1640 containing 0.1% BSA (binding buffer-3), and added to the coated-plates (1.5×10^5 cells/well, 100 μl). After 1-2 h of incubation at 37° C., 5% CO2, the plates were washed with binding buffer-3. Adherent cells were fixed and stained with 0.5% crystal violet in 20% methanol. After washing with water, the dye was extracted from cells using a 10% acetic acid solution (140 μl/well) and the absorbance at 570 nm was measured using a microplate reader. The effect of urine on the pro-adhesive properties of GNRs@Chit-Iso4 was investigated as described above, except that the cells were seeded in binding buffer-3 or binding buffer-1 and various amounts of human urine (obtained from a healthy volunteer).

MB49-Luc cells = test: Cell adhesion assay on coated microtiter plates; format: cell-based, murine; details: crystal violet stain
Method: as §1

## *HSA: HSA activated with sulfo-SMCC and quenched with β-mercaptoethanol instead of Iso4 [reference compound]
5637 cells
  cell adhesion to solid phase coated with the substance: but not the activated HSA lacking the peptide (*HSA), promoted and supported cell adhesion
MB49-Luc cells
  cell adhesion to solid phase coated with the substance: but not the activated HSA lacking the peptide (*HSA), promoted and supported cell adhesion

## Iso4-HSA: Iso4 chemically coupled to human serum albumin via sulfo-SMCC [reference compound]
5637 cells
  cell adhesion to solid phase coated with the substance: promoted and supported cell adhesion
MB49-Luc cells
  cell adhesion to solid phase coated with the substance: promoted and supported cell adhesion
